Laboratory results: US4011307A, “Production of ^203 Pb-tris-hydroxymethyl amino methane” (The United States of America as represented by the United …, priority 1976, dated 1977)

System: tissues of hamsters with eye melanoma
Experiment: Distribution of carrier-free lead-203 tris in tissue at various times
Assay type: in vivo, hamster
Method: The ^203 Pb-tris as described herein was injected in a relatively large number of mice and hamsters which were tumor bearing animals.
Results from one such group of hamsters are given in Table I showing distribution of the lead-203 tris in percent uptake per gram of tissue at various times.
Distribution of Carrier-Free Lead-203 Tris in Percent Uptake per Gram
of Tissue at Various Times*
*Averages and standard deviations for an average of 8-17 hamsters per tim
group, except * data which represents results from 4 animals.

## Lead-203 tris-hydroxymethyl aminomethane
Time 1, 60 min
  Distribution, Brain: 0.107 Percent Uptake per Gram of Tis
Time 3, 180 min
  Distribution, Brain: 0.067 Percent Uptake per Gram of Tis
Time 6, 360 min
  Distribution, Brain: 0.135 Percent Uptake per Gram of Tis
Time 24, 1440 min
  Distribution, Brain: 0.139 Percent Uptake per Gram of Tis
Time 72, * 4 animals, 4320 min
  Distribution, Brain: 0.067 Percent Uptake per Gram of Tis
Time 144, 8640 min
  Distribution, Brain: 0.109 Percent Uptake per Gram of Tis
Gonads, Time 72, 4320 min
  Distribution, Gonads: 0.135 Percent Uptake per Gram of Tis
